{"sequences": {"note": "Protein sequences, listed by entry. Tags and fused reporters are not part of them.", "UniProt P08684, whole entry": "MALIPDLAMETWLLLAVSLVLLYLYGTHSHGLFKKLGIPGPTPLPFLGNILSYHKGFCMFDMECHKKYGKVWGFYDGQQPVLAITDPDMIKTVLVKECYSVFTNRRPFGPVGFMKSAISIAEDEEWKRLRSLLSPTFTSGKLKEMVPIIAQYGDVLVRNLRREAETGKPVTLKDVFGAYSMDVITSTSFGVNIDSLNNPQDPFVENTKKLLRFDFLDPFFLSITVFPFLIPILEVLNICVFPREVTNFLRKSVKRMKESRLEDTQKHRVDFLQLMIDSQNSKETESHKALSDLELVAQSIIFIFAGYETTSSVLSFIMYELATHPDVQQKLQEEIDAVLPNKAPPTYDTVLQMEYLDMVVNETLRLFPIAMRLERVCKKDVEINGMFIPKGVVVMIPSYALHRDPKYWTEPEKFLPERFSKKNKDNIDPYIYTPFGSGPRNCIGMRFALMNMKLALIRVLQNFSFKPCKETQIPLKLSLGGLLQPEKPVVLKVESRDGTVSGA"}, "source": "ChEMBL document CHEMBL1145288", "about": "“5-substituted, 6-substituted, and unsubstituted 3-heteroaromatic pyridine analogues of nicotine as selective inhibitors of cytochrome P-450 2A6” (J Med Chem, 2005)", "key": {"[1]": {"system": "CYP2B6 versus CYP2A6", "experiment": "Ratio of inhibition of human cytochrome P-450 2B6 to 2A6 was determined; Expressed as IC50(CYP2B6)/IC50(CYP2A6)"}, "[2]": {"system": "CYP2E1 versus CYP2A6", "experiment": "Ratio of inhibition of human cytochrome P-450 2E1 to 2A6 was determined; Expressed as IC50(CYP2E1)/IC50(CYP2A6)"}, "[3]": {"biological_target": "Cytochrome P450 3A4 (Homo sapiens, UniProt P08684)", "experiment": "Inhibitory concentration value against human cytochrome P-450 3A4"}}, "note": "pIC50: −log10 of the molar value.", "data": [{"smiles": "O/N=C\\c1ccc(-c2cccnc2)o1", "values": [{"measurement": "selectivity ratio", "setting": "[1]", "value": 30}, {"measurement": "selectivity ratio", "setting": "[2]", "value": "> 95"}]}, {"smiles": "c1cncc(-c2cccs2)c1", "values": [{"measurement": "pIC50", "setting": "[3]", "value": 4.24}]}]}
